Measured values from PubChem BioAssay AID603 (National Center for Advancing Translational Sciences (NCATS), 2007).
This is a selection; strong and weak results do not stand in their true shares. Some of these compounds have results that are not shown, active ones among them. Active and inactive are the calls of the source. The call rests on the fitted dose curve; in most records, active means well fitted curve in the direction sought with a large enough effect; inconclusive means small, poorly fitted or top-dose-only effect; inactive means flat fitted curve, though single readings scatter.

Tested on: DNA polymerase III holoenzyme (E. coli)
Test: qHTS Assay for Inhibitors of DNA Polymerase III Holoenzyme System
Settings: reconstituted DNA polymerase III holoenzyme replication, biochemical; at 11.4 µM (top of the series) unless noted
Method: NIH Molecular Libraries Screening Centers Network [MLSCN]
NIH Chemical Genomics Center [NCGC]
Assay Provider: Charles McHenry, University of Colorado
E. coli DNA polymerase III holoenzyme complex was assayed for DNA production by fluorescent detection of the double-stranded DNA product with PicoGreen dye. The holoenzyme complex was reconstituted from the following purified protein components: DNA Polymerase III, beta subunit processivity factor, SSB single-stranded DNA binding protein, and Primase. Single-stranded, circular M13Gori was used as a substrate with dNTPs and NTPs also supplied to the substrate reagent. Compounds from the NCGC collection were incubated with the holoenzyme mixture for 15 min at room temperature to allow binding to occur, and then the reaction was started by the addition of substrate. After 30 min incubation at room temperature, PicoGreen solution containing EDTA was added to stop the reaction and to visualize the double-stranded DNA produced. Reaction progress was measured in a ViewLux CCD imager in fluorescence intensity mode by using 480 nm excitation and 540 nm emission filter set.
NCGC Assay Protocol Summary:
Buffer. 50 mM Hepes-KOH, pH 7.5, 5 % Glycerol, 0.02% NP40, 30 mM potassium;
glutamate, 1.5 mM Magnesium Acetate, 16 uM TCEP.
Buffer in columns 3 and 4 as negative control (no enzyme).
Substrate solution: 5 uM each dATP, dGTP, dCTP and TTP, 50 uM each GTP, CTP, UTP and 200 uM ATP, 1.4 nM M13gori (final concentrations).
Enzyme: 154 nM SSB, 2 nM Primase, 1 nM Beta, 0.35 nM Pol III (final concentrations).
PicoGreen/EDTA: 10 mM Tris-HCl, 10 mM EDTA, 5 uM PicoGreen (final concentrations).
Control titration: ChemBridge 5805060 (from 10 mM, then 1:2, in duplicate) was pin-transferred to upper half of column 2.
Three uL of holoenzyme mixture were dispensed to 1536-well Greiner black solid bottom plates. Compounds and controls (23 nL) were transferred via Kalypsys PinTool. The plates were incubated for 15 min at room temperature, and then 1 uL of substrate solution was added to start the reaction. After room temperature incubation for 35 minutes, 1 uL of PicoGreen solution was added to each well and the plates were read 480 nm excitation and 540 nm emission using ViewLux (Perkin-Elmer) High-throughput CCD imager and fluorescence protocol settings.
Keywords: NIH Roadmap, MLSCN, MLI, MLSMR, qHTS, NCGC, DNA Polymerase III, DNAPol3, DNAPoly3, DNA replication targets
On the % scale 0 is the no-effect control and ±100 the full control effect.

Question: For CN(C)c1cccc(C(=O)NCC2(N(C)C)CCCCC2)c1, which activity change, negative = inhibition is on record?
Answer: inactive: 3.3% [at 57.1 µM]

Question: With CN1CC[C@H](OC(=O)[C@](O)(c2ccccc2)C2CCCC2)C1 as the compound, how does the activity change, negative = inhibition read?
Answer: inactive: -7.7%

Question: Which activity change, negative = inhibition does the source give for O=C(OC1CN2CCC1CC2)C(CO)(c1ccccc1)c1ccccc1 (stereo not given) here?
Answer: inactive: -1% [at 57.1 µM]

Question: Which activity change, negative = inhibition does the source give for CN1CCC[C@H](OC(=O)[C@](O)(c2ccccc2)C2CCCC2)C1 here?
Answer: inactive: -11.2%

Question: Which activity change, negative = inhibition does the source give for C=C(C)C#C[C@@](O)(C(=O)OC1CCN(C)CC1)c1ccccc1 here?
Answer: inactive: -11%
